Data set [1] deals with CYP1A2 (Homo sapiens (Human), UniProt P05177). In kind it is in vitro ADME. The note with it: microsomes. The method, then:
(§1) In this test, after the mixed human liver microsomes were incubated with isomer 2 of compound 20 at different concentrations (0.05-50 μM) and corresponding probe drugs, the changes of CYP enzyme activity were measured, and the IC50 value was calculated to evaluate the inhibition potential of isomer 2 of compound 20 on each CYP enzyme.

Amino acid sequences for entries named in this document (tags omitted). A change or cut given only in a name is not applied to a line headed by its entry.
UniProt P05177, whole entry: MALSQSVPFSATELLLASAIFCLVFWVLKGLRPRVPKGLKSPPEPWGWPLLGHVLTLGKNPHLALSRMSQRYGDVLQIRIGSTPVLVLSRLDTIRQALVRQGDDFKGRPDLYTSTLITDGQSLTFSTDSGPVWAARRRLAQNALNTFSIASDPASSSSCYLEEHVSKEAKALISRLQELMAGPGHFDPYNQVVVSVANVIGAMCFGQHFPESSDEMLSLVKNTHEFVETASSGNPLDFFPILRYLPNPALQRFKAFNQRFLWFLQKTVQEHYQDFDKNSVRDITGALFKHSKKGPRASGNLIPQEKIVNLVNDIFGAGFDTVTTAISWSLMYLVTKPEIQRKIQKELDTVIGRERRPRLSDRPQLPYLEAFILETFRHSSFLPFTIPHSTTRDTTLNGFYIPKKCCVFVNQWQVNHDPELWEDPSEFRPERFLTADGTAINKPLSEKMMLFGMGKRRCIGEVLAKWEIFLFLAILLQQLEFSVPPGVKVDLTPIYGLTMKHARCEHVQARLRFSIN
UniProt P33261, whole entry: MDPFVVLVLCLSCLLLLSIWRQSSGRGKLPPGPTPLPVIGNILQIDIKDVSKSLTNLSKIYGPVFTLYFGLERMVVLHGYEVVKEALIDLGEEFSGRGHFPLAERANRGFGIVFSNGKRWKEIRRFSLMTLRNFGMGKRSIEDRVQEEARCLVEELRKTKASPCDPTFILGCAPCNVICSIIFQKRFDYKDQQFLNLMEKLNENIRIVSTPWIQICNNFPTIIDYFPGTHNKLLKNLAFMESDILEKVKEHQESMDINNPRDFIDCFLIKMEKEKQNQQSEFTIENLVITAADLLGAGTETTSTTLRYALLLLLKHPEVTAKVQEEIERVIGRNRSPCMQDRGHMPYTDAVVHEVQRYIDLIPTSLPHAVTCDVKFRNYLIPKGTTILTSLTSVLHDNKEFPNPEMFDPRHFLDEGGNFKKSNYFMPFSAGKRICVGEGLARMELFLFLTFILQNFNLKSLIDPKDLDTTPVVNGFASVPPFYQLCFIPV
UniProt P11712, whole entry: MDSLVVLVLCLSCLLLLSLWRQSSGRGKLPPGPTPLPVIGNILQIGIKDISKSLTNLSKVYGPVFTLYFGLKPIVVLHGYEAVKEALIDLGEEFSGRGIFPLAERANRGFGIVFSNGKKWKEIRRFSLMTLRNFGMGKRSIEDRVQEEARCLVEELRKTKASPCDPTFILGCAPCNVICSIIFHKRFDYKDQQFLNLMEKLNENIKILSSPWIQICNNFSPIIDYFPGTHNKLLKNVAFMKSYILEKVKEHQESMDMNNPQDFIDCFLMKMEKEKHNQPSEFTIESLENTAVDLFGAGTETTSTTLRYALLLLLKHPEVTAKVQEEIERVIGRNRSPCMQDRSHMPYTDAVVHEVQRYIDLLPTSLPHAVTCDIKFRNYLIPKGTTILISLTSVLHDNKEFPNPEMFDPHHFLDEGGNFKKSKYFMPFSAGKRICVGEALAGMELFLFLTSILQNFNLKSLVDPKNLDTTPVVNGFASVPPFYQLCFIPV
UniProt Q12809: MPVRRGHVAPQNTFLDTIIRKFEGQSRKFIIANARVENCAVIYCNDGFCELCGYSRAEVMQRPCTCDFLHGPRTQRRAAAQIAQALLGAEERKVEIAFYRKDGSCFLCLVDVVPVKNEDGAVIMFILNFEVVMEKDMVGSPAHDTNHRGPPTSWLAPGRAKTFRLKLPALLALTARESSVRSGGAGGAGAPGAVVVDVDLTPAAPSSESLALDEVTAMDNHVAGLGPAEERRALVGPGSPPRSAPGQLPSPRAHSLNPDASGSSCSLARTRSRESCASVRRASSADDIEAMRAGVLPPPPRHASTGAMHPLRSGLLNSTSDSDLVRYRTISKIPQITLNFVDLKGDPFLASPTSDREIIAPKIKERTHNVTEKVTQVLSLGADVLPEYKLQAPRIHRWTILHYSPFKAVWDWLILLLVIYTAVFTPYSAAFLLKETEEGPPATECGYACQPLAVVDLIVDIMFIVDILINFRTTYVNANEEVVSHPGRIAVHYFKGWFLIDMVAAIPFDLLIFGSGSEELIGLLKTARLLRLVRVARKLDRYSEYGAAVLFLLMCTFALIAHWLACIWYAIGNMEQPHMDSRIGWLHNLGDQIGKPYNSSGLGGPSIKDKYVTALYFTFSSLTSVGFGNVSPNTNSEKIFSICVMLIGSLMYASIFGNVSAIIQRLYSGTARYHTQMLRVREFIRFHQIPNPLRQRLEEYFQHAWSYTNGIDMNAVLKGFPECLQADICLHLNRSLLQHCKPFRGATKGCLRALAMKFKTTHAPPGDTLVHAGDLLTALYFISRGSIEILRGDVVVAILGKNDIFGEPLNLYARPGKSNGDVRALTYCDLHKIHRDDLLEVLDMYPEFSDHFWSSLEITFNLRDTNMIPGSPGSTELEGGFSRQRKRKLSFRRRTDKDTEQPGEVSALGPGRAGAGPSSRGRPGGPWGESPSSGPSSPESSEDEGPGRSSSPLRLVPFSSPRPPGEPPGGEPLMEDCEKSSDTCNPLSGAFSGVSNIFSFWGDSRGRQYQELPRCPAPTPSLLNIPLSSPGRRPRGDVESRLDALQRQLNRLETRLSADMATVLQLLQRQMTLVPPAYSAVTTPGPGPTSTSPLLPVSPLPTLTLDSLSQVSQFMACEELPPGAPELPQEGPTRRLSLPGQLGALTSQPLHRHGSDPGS

Data set [2] deals with CYP2C19 (Homo sapiens (Human), UniProt P33261). Briefly: CYP450 enzyme inhibition test, mixed human liver microsomes. Particulars: 0.05-50 μM. In kind it is in vitro ADME. The method, then:
as §1
(In general: Liver microsomes are vesicles of endoplasmic reticulum, rich in cytochrome P450 enzymes.)

The target in data set [3] is CYP2C9 (Homo sapiens (Human), UniProt P11712). Described as above. In kind it is in vitro ADME. Particulars: 0.05-50 μM. The method, then: as §1
Data set [4] concerns the target hERG potassium channel (Homo sapiens (Human), UniProt Q12809). Briefly: Test for hERG potassium ion channel, manual patch-clamp in CHO cells. The format is cell-based. The source says: Test platform: electrophysiological manual patch-clamp system
Cell line: Chinese hamster ovary (CHO) cell lines stably expressing hERG potassium ion channel
Test method: In CHO (Chinese Hamster Ovary) cells stably expressing hERG potassium channel, whole cell patch-clamp technique was used to record hERG potassium channel current at room temperature. The glass microelectrode was made of a glass electrode blank (BF150-86-10, Sutter) by a puller. The tip resistance after filling the liquid in the electrode was about 2-5 MΩ. The glass microelectrode can be connected to the patch-clamp amplifier by inserting the glass microelectrode into an amplifier probe. The clamping voltage and data recording were controlled and recorded by the pClamp 10 software through a computer. The sampling frequency was 10 kHz, and the filtering frequency was 2 kHz. After the whole cell records were obtained, the cells were clamped at −80 mV, and the step voltage that induced the hERG potassium current (IhERG) was depolarized from −80 mV to +20 mV for 2 s, then repolarized to −50 mV, and returned to −80 mV after 1 s. This voltage stimulation was given every 10 s, and the administration process was started after the hERG potassium current was confirmed to be stable (at least 1 minute). The compound was administered for at least 1 minute at each test concentration, and at least 2 cells (n>2) were tested at each concentration.
Data processing: Data analysis processing was carried out by using pClamp 10, GraphPad Prism 5 and Excel software. The inhibition degree of hERG potassium current (peak value of hERG tail current induced at −50 mV) at different compound concentrations was calculated by the following formula:
Inhibition %=[1−(I/Io)]×100%
Among the formula, Inhibition % represents the percentage of inhibition of hERG potassium current by the compound, and I and Io represent the amplitude of hERG potassium current after and before dosing, respectively.
Compound IC50 was calculated using GraphPad Prism 5 software by fitting according to the following equation: […]
In general terms: hERG is a cardiac potassium channel; its block is linked to QT prolongation.

In general, IC50 refers to the concentration that inhibits the measured activity by half. On to “2-((1R,5S,6S)-3-(7,7-difluoro-2-((S)-2-(trifluoromethyl)azetidin-1-yl)-6,7-dihydro-5H-cyclopenta[d]pyrimidin-4-yl)-3-azabicyclo[3.1.1]heptan-6-yl)acetic acid [Isomer 2 of compound 20]”, for which the IC50 in data set [1] was more than 50 µM; in data set [2], more than 50 µM; in data set [3], more than 50 µM; in data set [4] (CHO cells stably expressing hERG, whole cell patch-clamp, read-out: IC50 for inhibiting the hERG potassium channel current) it was more than 40 µM. Also, the “inhibitory effect on the hERG potassium channel current (in words)” value in data set [4] (CHO cells stably expressing hERG) is recorded as “basically has no inhibitory effect”. For the same substance, the “Inhibition rate at the highest concentration tested” value in data set [4] (hERG current, 40 μM, CHO cells) came to 20.4 ± 3.58%@40 μM.
